Measured values published in patent US20220389115A1 (SURFACE ONCOLOGY, published 2022).

Biological target: T1, CD39 (ectonucleoside triphosphate diphosphohydrolase 1, ENTPD1) (human, UniProt P49961 1-510)
T1 construct: whole, on cells; The 'target' of the target occupancy measurement on peripheral blood monocytes of patients dosed with clone 22; also called E-NTPDase1; NTPDase-1
T1 sequence (looked up): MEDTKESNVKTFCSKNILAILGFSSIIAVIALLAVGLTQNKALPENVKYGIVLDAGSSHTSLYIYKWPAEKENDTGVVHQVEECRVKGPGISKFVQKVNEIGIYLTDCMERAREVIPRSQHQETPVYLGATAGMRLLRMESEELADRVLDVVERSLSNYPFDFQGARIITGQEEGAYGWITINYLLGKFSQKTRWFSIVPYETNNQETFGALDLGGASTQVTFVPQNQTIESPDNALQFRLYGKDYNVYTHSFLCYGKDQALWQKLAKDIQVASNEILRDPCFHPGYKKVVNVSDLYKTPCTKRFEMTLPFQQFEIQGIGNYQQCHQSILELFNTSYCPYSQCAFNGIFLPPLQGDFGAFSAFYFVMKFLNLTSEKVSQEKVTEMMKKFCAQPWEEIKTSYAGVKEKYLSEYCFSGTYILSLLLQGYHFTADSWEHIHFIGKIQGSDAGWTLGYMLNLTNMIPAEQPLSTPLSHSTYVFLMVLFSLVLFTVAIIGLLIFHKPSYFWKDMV
Assay: percent target occupancy on peripheral blood monocytes of dosed patients (ex vivo pharmacodynamic assay)

binding result: binds
B1: Clone 22 (antibody, human IgG4 S228P, kappa, V domains shown)
VH: QVQLVQSGAEVKKPGSSVKVSCKASGGTFSSEGISWVRQAPGQGLEWMGSILPIFGTANYAQKFQGRVTITADESTSTAYMELSSLRSEDTAVYYCAREAGYYRYRYFDLWGRGTLVTVSS
VL: EIVMTQSPATLSVSPGERATLSCRASQSVSSNLAWYQQKPGQAPRLLIYGASTRATGIPARFSGSGSGTEFTLTISSLQSEDFAVYYCQQHALWPLTFGGGTKVEIKR
